For the assay, the species on record is Homo sapiens. Briefly: Selectivity ratio of Ki for human mu opioid receptor to Ki for human kappa opioid receptor.

On to `O=C(O)CCCCCCCCC(=O)Oc1ccc2c(c1)[C@@]13CCCC[C@H]1[C@@H](C2)N(CC1CCC1)CC3`, for which the Ratio Ki came out at 2.4.
